In US6583179B2, “Substituted aminoalkylamide derivatives as antagonists of follicle stimulating hormone” (Ortho-McNeil Pharmaceutical, Inc., priority 1999, dated 2003):
Several values for one entry are separate records, joined by “and”; a condition that tells them apart may be missing. Identical values can stand only once.

Sequences of proteins named here, by UniProt entry; tags and fusion partners are left off. Residues count along the entry.
UniProt P23945, 18-695 limits assumed: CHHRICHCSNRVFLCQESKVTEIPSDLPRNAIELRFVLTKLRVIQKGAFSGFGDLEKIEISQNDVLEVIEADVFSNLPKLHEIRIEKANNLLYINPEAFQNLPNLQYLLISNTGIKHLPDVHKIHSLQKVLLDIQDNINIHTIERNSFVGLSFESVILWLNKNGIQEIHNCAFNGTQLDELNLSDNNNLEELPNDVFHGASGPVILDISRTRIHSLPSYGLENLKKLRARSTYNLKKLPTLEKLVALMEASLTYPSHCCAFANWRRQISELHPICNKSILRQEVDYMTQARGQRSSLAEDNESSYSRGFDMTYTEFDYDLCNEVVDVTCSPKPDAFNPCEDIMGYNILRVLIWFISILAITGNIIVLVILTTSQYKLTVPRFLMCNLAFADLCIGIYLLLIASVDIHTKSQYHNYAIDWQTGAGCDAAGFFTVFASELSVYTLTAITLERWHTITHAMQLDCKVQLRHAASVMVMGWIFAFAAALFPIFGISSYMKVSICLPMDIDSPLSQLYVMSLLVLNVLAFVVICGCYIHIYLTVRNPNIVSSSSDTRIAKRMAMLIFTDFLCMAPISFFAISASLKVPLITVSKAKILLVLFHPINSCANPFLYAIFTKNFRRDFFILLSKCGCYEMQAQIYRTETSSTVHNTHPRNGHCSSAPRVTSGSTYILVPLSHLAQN

Target: human FSH receptor (Homo sapiens, UniProt P23945)
Test: hFSHR CHO cAMP assay (rhFSHR-cLUC cells, FSH-stimulated cAMP, radioimmunoassay)
Conditions: read-out: EC50 hFSHR CHO cAMP; inhibition of cAMP produced by EC70 dose of FSH (4.85 nM); maximum concentration 50 μM

| EC50 | Compound |
| --- | --- |
| 3430 nM | COc1ccc(OC)c(-c2cccc(S(=O)(=O)N(CCc3ccccc3OC)CC(=O)NCc3ccc(CN)cc3)c2)c1 |
| 13800 nM | COc1ccccc1CCN(CC(=O)N1CCNCC1)S(=O)(=O)c1ccc(-c2ccc(Cl)cc2)cc1 |
| 2230 nM | COc1ccccc1CCN(CC(=O)N1CCNCC1)S(=O)(=O)c1ccc(-c2ccc3c(c2)OCO3)cc1 |
| 210 nM | NCCCCCCNC(=O)CN(CC1Cc2ccccc21)S(=O)(=O)c1ccc(-c2ccccc2Cl)cc1 (stereo not drawn) |
| 370 nM | Cc1ccc(Cl)cc1-c1ccc(S(=O)(=O)N(CC(=O)NCc2ccc(CN)cc2)C[C@H](C)c2ccccc2)cc1 |
| 2500 nM | NCc1ccc(CNC(=O)CN(CCCc2ccccc2)S(=O)(=O)c2ccc(-c3ccccc3Cl)cc2)cc1 |
| 5000 nM | COc1ccccc1CCN(CC(=O)NCc1ccc(CN)cc1)S(=O)(=O)c1ccc(C(F)(F)F)cc1 |
| 8900 nM | COc1ccccc1CCN(CC(=O)NCc1ccc(CN)cc1)S(=O)(=O)c1ccccc1-c1c(C)noc1C |
| 370 nM | COc1ccccc1CCN(CC(=O)NCCCCCCN)S(=O)(=O)c1ccc(-c2ccccc2OC)cc1 |
| > 50000 nM | CS(=O)(=O)Nc1ccccc1CCN(CC(=O)NCc1ccc(CN)cc1)S(=O)(=O)c1ccc(-c2ccccc2Cl)cc1 |
| 720 nM | Cc1ccccc1-c1ccc(S(=O)(=O)N(CC(=O)NCc2ccc(CN)cc2)C[C@H](C)c2ccccc2)cc1 [415] |
| ≥ 50000 nM | COc1ccccc1CCN(CC(=O)NCc1ccc(CN)cc1)S(=O)(=O)c1ccc(C(F)(F)F)cc1[N+](=O)[O-] |
| 200 nM | COc1cc(CCN(CC(=O)NCCCCCCN)S(=O)(=O)c2ccc(-c3ccccc3Cl)cc2)cc(OC)c1 |
| 920 nM | COC(CN(CC(=O)NCc1ccc(CN)cc1)S(=O)(=O)c1ccc(-c2ccccc2Cl)cc1)c1ccccc1 (stereo not drawn) |
| ≥ 50000 nM | COc1ccccc1CCN(CC(=O)NCc1ccc(CN)cc1)S(=O)(=O)c1cccc(-c2ccc(C(F)(F)F)cc2)c1 |
| 12800 nM | COc1ccccc1CCN(CC(=O)NCc1ccc(CN)cc1)S(=O)(=O)c1ccccc1-c1ccc(Cl)cc1 |
| ≥ 50000 nM | COc1ccccc1CN(CC(=O)N1CCNCC1)S(=O)(=O)c1ccc(-c2ccc3c(c2)OCO3)cc1 |
| 4620 nM | NCc1ccc(CNC(=O)CN(C2Cc3ccccc3C2)S(=O)(=O)c2ccc(-c3ccccc3Cl)cc2)cc1 |
| 4190 nM | COc1ccccc1CCN(CC(=O)NCc1ccc(CN)cc1)S(=O)(=O)c1cccc(-c2cccc(C)c2)c1 |
| 21900 nM | CC(C)(CN(CC(=O)NCc1ccc(CN)cc1)S(=O)(=O)c1ccc(-c2ccccc2Cl)cc1)c1ccccc1 |
| 580 nM | COc1cccc(-c2ccc(S(=O)(=O)N(CC(=O)NCc3ccc(CN)cc3)C[C@H](C)c3ccccc3)cc2)c1NC(=O)C(C)(C)C |

| EC50 | Compound |
| --- | --- |
| 740 nM | C[C@H](CN(CC(=O)NCc1ccc(CN)cc1)S(=O)(=O)c1ccc(C(F)(F)F)cc1)c1ccccc1 |
| 4360 nM | NCc1ccc(CNC(=O)CN(C2CC2c2ccccc2)S(=O)(=O)c2ccc(-c3cccc(F)c3)cc2)cc1 (stereo not drawn) |
| 7990 nM | COc1ccccc1CCN(CC(=O)NCc1ccc(CN)cc1)S(=O)(=O)c1ccccc1-c1ccc(Cl)cc1Cl |
| 290 nM and 520 nM | C[C@@H](CN(CC(=O)NCc1ccc(CN)cc1)S(=O)(=O)c1ccc(-c2ccccc2F)cc1)c1ccccc1 [451] |
| 1060 nM | NCCCCCCNC(=O)CN(CCc1ccc(Cl)c(Cl)c1)S(=O)(=O)c1ccc(-c2ccccc2Cl)cc1 |
| 220 nM | CC(CN(CC(=O)NCc1ccc(CN)cc1)S(=O)(=O)c1ccc(-c2ccccc2Cl)cc1)c1ccccc1 (stereo not drawn) |
| 840 nM | CC(C)c1ccc(S(=O)(=O)N(CC(=O)NCc2ccc(CN)cc2)C[C@@H](C)c2ccccc2)cc1 |
| 90 nM | Cc1ccccc1-c1ccc(S(=O)(=O)N(CC(=O)NCCCCCCN)C[C@H](C)c2ccccc2)cc1 |
| 770 nM | NCc1ccc(CNC(=O)CN(CCc2ccc3c(c2)OCO3)S(=O)(=O)c2ccc(-c3ccccc3Cl)cc2)cc1 |
| 200 nM | C[C@@H](CN(CC(=O)NCc1ccc(CN)cc1)S(=O)(=O)c1ccc(-c2c(F)cccc2F)cc1)c1ccccc1 |
| 1370 nM | NCCCCCCNC(=O)CN(CCC1=CCCCC1)S(=O)(=O)c1ccc(-c2ccccc2Cl)cc1 |
| 4460 nM | COc1ccccc1CCN(CC(=O)NCc1ccc(CN)cc1)S(=O)(=O)c1ccccc1-c1ccccc1 |
| ≥ 50000 nM | COc1ccccc1CN(CC(=O)N1CCNCC1)S(=O)(=O)c1ccc(-c2cccc(NC(C)=O)c2)cc1 |
| 610 nM | C[C@H](CN(CC(=O)NCCCCCN)S(=O)(=O)c1ccc(-c2ccccc2Cl)cc1)c1ccccc1 |
| 3510 nM | COc1ccccc1CCN(CC(=O)NCc1ccc(CN)cc1)S(=O)(=O)c1ccccc1-c1ccccc1C(F)(F)F |
| ≥ 50000 nM | COc1ccccc1CN(CC(=O)N1CCNCC1)S(=O)(=O)c1ccc(-c2cccnc2)cc1 |
| 1080 nM | COc1ccccc1CCN(CC(=O)NCc1ccc(CN)cc1)S(=O)(=O)c1ccc(OC(F)(F)F)cc1 |
| 1860 nM | COc1ccccc1CCN(CC(=O)NCc1ccc(CN)cc1)S(=O)(=O)c1ccc(F)cc1 |
| 2240 nM | COc1ccccc1CN(CC(=O)NCc1cccc(CN)c1)S(=O)(=O)c1ccc(-c2ccccc2C)cc1 |
| 5850 nM | COc1ccccc1CCN(CC(=O)NCc1ccc(CN)cc1)S(=O)(=O)c1cccc(-c2ccccc2Cl)c1 |
| 34400 nM | COc1ccccc1CCN(CC(=O)NCc1ccc(CN)cc1)S(=O)(=O)c1ccc(-c2ccc(C(F)(F)F)cc2)s1 |

| EC50 | Compound |
| --- | --- |
| 13500 nM | COc1ccc(-c2ccccc2S(=O)(=O)N(CCc2ccccc2OC)CC(=O)NCc2ccc(CN)cc2)cc1 |
| 640 nM | C[C@@H](CN(CC(=O)NCc1ccc(CN)cc1)S(=O)(=O)c1ccc(-c2csc3ccccc23)cc1)c1ccccc1 |
| ≥ 50000 nM | COc1ccccc1CN(CC(=O)N1CCNCC1)S(=O)(=O)c1ccc(-c2ccccc2F)cc1 |
| 31900 nM | COc1ccccc1CCN(CC(=O)NCc1ccc(CN)cc1)S(=O)(=O)c1ccc(-c2ccc(C)cc2)s1 |
| 16900 nM | Cc1ccccc1-c1ccc(S(=O)(=O)N(CC(=O)NCc2ccc(CN)cc2)CC2(c3ccc(Cl)cc3)CC2)cc1 |
| > 50000 nM | C[C@@H](CN(CC(=O)NCc1ccc(CN)cc1)S(=O)(=O)c1ccc(-c2cccc3c2sc2ccccc23)cc1)c1ccccc1 |
| 1770 nM | COc1ccccc1CCN(CC(=O)NCc1ccc(CN)cc1)S(=O)(=O)c1ccccc1-c1ccsc1 |
| ≥ 50000 nM | COc1ccccc1CN(CC(=O)N1CCNCC1)S(=O)(=O)c1ccc(-c2ccc(C)cc2)cc1 |
| 4330 nM | COc1cccc(-c2cccc(S(=O)(=O)N(CCc3ccccc3OC)CC(=O)NCc3ccc(CN)cc3)c2)c1 |
| 140 nM | NCCCCCCNC(=O)CN(CCc1ccccc1Cl)S(=O)(=O)c1ccc(-c2ccccc2Cl)cc1 |
| 230 nM | Cc1ccccc1-c1ccc(S(=O)(=O)N(CC(=O)NCCCCCCN)C[C@@H](C)c2ccccc2)cc1 |
| 2080 nM | COc1ccccc1CCN(CC(=O)NCc1ccc(CN)cc1)S(=O)(=O)c1cccc(-c2cccc(C(F)(F)F)c2)c1 |
| 80 nM | NCCCCCCNC(=O)CN(CCc1ccc(Cl)cc1Cl)S(=O)(=O)c1ccc(-c2ccccc2Cl)cc1 |
| 5820 nM | COc1ccccc1CCN(CC(=O)NCc1ccc(CN)cc1)S(=O)(=O)c1ccccc1-c1cccc(Cl)c1 |
| 900 nM | COc1ccccc1CCN(CC(=O)NCc1cccc(CN)c1)S(=O)(=O)c1ccc(-c2ccc(Cl)cc2Cl)cc1 |
| 700 nM | C[C@@H](CN(CC(=O)NCc1ccc(CN)cc1)S(=O)(=O)c1ccc(-c2cccc(Br)c2)cc1)c1ccccc1 |
| 6880 nM | COc1ccccc1CCN(CC(=O)NCc1ccc(CN)cc1)S(=O)(=O)c1ccc(-c2cccc(C(F)(F)F)c2)s1 |
| 11300 nM | NCc1ccc(CNC(=O)CN(C2CC2c2ccccc2)S(=O)(=O)c2ccc(-c3ccccc3Cl)cc2)cc1 (stereo not drawn) |
| 240 nM | CCCc1ccc(S(=O)(=O)N(CC(=O)NCc2ccc(CN)cc2)C[C@H](C)c2ccccc2)cc1 |
| 100 nM | NCc1ccc(CNC(=O)CN(CCc2cccc(F)c2)S(=O)(=O)c2ccc(-c3ccccc3Cl)cc2)cc1 |
| 130 nM | CCCc1ccc(S(=O)(=O)N(CC(=O)NCc2ccc(CN)cc2)C[C@@H](C)c2ccccc2)cc1 |

| EC50 | Compound |
| --- | --- |
| 1380 nM | CCCCCc1ccc(S(=O)(=O)N(CC(=O)NCc2ccc(CN)cc2)C[C@@H](C)c2ccccc2)cc1 |
| > 50000 nM | C[C@@H](CN(CC(=O)NCc1ccc(CN)cc1)S(=O)(=O)c1ccc(-c2cccc3c2Oc2ccccc2S3)cc1)c1ccccc1 |
| 8660 nM | COc1ccccc1CCN(CC(=O)NCc1ccc(CN)cc1)S(=O)(=O)c1ccccc1-c1ccncc1 |
| 10700 nM | COc1ccccc1CCN(CC(=O)N1CCNCC1)S(=O)(=O)c1ccc(-c2ccc(F)cc2)cc1 |
| 7630 nM | COc1ccccc1CCN(CC(=O)NCc1ccc(CN)cc1)S(=O)(=O)c1ccc(-c2cccnc2)s1 |
| ≥ 50000 nM | COc1ccccc1CN(CC(=O)N1CCNCC1)S(=O)(=O)c1ccc(-c2c(C)noc2C)cc1 |
| 510 nM | CC(=O)Nc1cccc(-c2ccc(S(=O)(=O)N(CC(=O)NCc3ccc(CN)cc3)C[C@H](C)c3ccccc3)cc2)c1 |
| 1160 nM | COc1ccccc1CCN(CC(=O)NCc1ccc(CN)cc1)S(=O)(=O)c1ccc(-c2ccsc2)s1 |
| 170 nM | C[C@H](CN(CC(=O)NCC1CCC(CN)CC1)S(=O)(=O)c1ccc(-c2ccccc2Cl)cc1)c1ccccc1 (stereo partly drawn) |
| 130 nM | COc1cc(CCN(CC(=O)NCc2ccc(CN)cc2)S(=O)(=O)c2ccc(-c3ccccc3Cl)cc2)cc(-c2ccccc2Cl)c1OC |
| 900 nM | C[C@@H](CN(CC(=O)NCc1ccc(CN)cc1)S(=O)(=O)c1ccc(-c2ccncc2)cc1)c1ccccc1 |
| 17000 nM | NCc1ccc(CNC(=O)CN(CCc2ccccc2)S(=O)(=O)c2ccc(-c3cccc(F)c3)cc2)cc1 |
| 100 nM | NCCCCCCNC(=O)CN(CCc1cccc(F)c1)S(=O)(=O)c1ccc(-c2ccccc2Cl)cc1 |
| 580 nM | C[C@@H](CN(CC(=O)NCc1ccc(CN)cc1)S(=O)(=O)c1ccc(-c2cccc3ccccc23)cc1)c1ccccc1 |
| 110 nM | COc1cccc(CCN(CC(=O)NCc2ccc(CN)cc2)S(=O)(=O)c2ccc(-c3ccccc3Cl)cc2)c1OC |
| 31100 nM | COc1ccccc1CCN(CC(=O)NCc1ccc(CN)cc1)S(=O)(=O)c1ccccc1-c1ccc2c(c1)OCO2 |
| 17000 nM | NCc1ccc(CNC(=O)CN(CC2(c3ccc(Cl)cc3)CC2)S(=O)(=O)c2ccc(-c3ccccc3Cl)cc2)cc1 |
| 770 nM | C[C@H](CN(CC(=O)NCc1ccc(CN)cc1)S(=O)(=O)c1ccc(-c2cccc(Cl)c2)cc1)c1ccccc1 |
